Measurements from paper PMC3625376 (Journal of the American Chemical Society, 2013).

Target: insulin receptor (Homo sapiens, UniProt P06213)
Experiment: insulin receptor-binding assay
Details: Table 1

Kd: 29 ± 5 pM
Substance: [Asp^B10, Lys^B28, Pro^B29]-insulin [DKP insulin (biosynthetic)]
